Values of other authors as cited in article PMC3350394, “Kinetic analysis and test-retest variability of the radioligand [^11C](R)-PK11195 binding to TSPO in the human brain - a PET study in control subjects” (EJNMMI Research, 2012).

By UniProt entry, the sequences of proteins in these tests, tags left out.
UniProt P30536, whole entry: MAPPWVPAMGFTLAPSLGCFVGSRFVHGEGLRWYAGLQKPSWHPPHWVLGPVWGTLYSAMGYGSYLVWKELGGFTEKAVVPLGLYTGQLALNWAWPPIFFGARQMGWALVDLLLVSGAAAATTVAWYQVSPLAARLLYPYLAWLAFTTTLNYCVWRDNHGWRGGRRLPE

Target: TSPO (Homo sapiens, UniProt P30536)
Design: from tissue; host or cells: living human brain (in vivo PET in six control subjects); method as in PMID 6667063
Details: human brain tissue in vitro; cited from earlier work

For `CCC(C)N(C)C(=O)c1cc2ccccc2c(-c2ccccc2Cl)n1` (stereo not shown) [[^3 H]PK11195, 1-(2-chlorophenyl)-N-methyl-N-(1-methylpropyl)-3-isoquinoline carboxamide], which Kd is on record?
Its Kd is 4.3 to 6.6 nM.
